The entries are a selection whose mix differs from that of the whole data set. Some tests of the compounds listed are not included; inactive here does not mean inactive elsewhere. Active and inactive are the calls of the source.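 Rule for the calls: active = mean replicate activation of at least 60% and every replicate at or above 60%; inconclusive = mean or all-replicate condition met, but not both; inactive = mean below 60% and not all replicates reaching 60%.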
Test: enhancers of HDL lipid transfer via mSR-BI – ldlA[mSR-BI] CHO cells, DiI fluorescence, primary screen (AID 504775);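 note: 0% = median plate neutral-control signal and 100% = twice that signal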
Settings: DiI-HDL uptake fluorescence, 3 h, at 12.5 µM, stronger effect = higher value, 100 = double the neutral-control signal
Summary of the method: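 material = CHO ldlA[mSR-BI] cells | medium = Ham's F12 with 0.5% BSA, HEPES 25 mM, pH 7.4 | reagent = fluorescent DiI-HDL, 10 µg/mL final | compound dosing = single-point compound dose | incubation = 3 h, 37 °C | measured by = bottom-read fluorescence, 550/595 nm | measure = HDL uptake via cellular fluorescence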

Row | SMILES | activation
1 | COc1cccc(C(=O)NCC2(N3CCCCC3)CCCCC2)c1 | inactive: 2.95%
2 | COc1ccc(Cl)cc1C(=O)NCC1(N(C)C)CCCCC1 | inactive: 0.252%
3 | COc1cc(C(=O)NCC2(N(C)C)CCCCC2)c([N+](=O)[O-])cc1OC | inactive: 6.86%
4 | CN(C)C1(CNC(=O)c2ccc(Br)cc2)CCCCC1 | inactive: 54.8%
5 | CN(C)c1cccc(C(=O)NCC2(N(C)C)CCCCC2)c1 | inactive: 36.6%
6 | CC(C)Oc1ccc(C(=O)NCC2(N(C)C)CCCCC2)cc1 | inactive: -7.08%
7 | O=C(OCCN1CCCC1)C(O)(c1ccccc1)c1ccccc1 | inactive: -1.28%
8 | O=C(OC1CN2CCC1CC2)C(CO)(c1ccccc1)c1ccccc1 (configuration not stated) | inactive: 29%
9 | Cc1ccc(C(=O)NCC2(N3CCCCC3)CCCCC2)cc1 | inactive: 18%
10 | CC(C)N1C(=O)CC2(CCN(CCOC(=O)C(O)(c3ccccc3)c3ccccc3)CC2)C1=O | inactive: 18.6%
11 | CCN(CC)CC(C)C(C)OC(=O)C(O)(c1ccccc1)c1ccccc1 (configuration not stated) | inactive: 10.9%
12 | COc1cc(SC)ccc1C(=O)NCC1(N(C)C)CCCCC1 | inactive: 25.3%
13 | CN1[C@@H]2CC[C@H]1CC(OC(=O)C(O)(c1ccccc1)c1ccccc1)C2 (some centres not stated) | inactive: 12.2%
14 | O=C(NCC1(N2CCCCC2)CCCCC1)c1cc([N+](=O)[O-])ccc1Cl | inactive: 13.3%
15 | CCN1CCCC(OC(=O)C2(O)c3ccccc3C=Cc3ccccc32)C1 (configuration not stated) | inactive: 37.4%
16 | Cc1cc(C(=O)NCC2(N3CCCCC3)CCCCC2)ccc1[N+](=O)[O-] | inactive: -3.18%
17 | COc1ccc(C(=O)NCC2(N(C)C)CCCCC2)cc1 | inactive: 20.7%
18 | C=CCN1CCN(CCOC(=O)C(O)(c2ccccc2)c2ccccc2)CC1 | inactive: 5.79%
19 | O=C(NCC1(N2CCCCC2)CCCCC1)c1cc(F)c(F)cc1Cl | inactive: 0.523%
20 | Cc1ccccc1C(=O)NCC1(N2CCCCC2)CCCCC1 | inactive: 12.3%
21 | CN(C)c1ccc(C(=O)NCC2(N(C)C)CCCCC2)cc1 | inactive: -10.3%
22 | CN(C)C1CCCC1OC(=O)C(O)(c1ccccc1)c1ccccc1 (configuration not stated) | inactive: 9.34%
